Experimental data taken from patent publication US20110053897A1 (IRM LLC, priority 2009, published 2011).
Read-outs that look alike come from different tables or passages of the source.

Molecular target: Syk kinase (Homo sapiens, UniProt P43405)
Test: Syk kinase inhibition, Caliper LabChip off-chip mobility-shift kinase assay
Conditions: read-out: Syk Enzyme IC50
Method: Compounds of the examples and Table 1 provided herein were assayed to measure their capacity to inhibit Syk kinase.
Compounds of the examples and Table 1 provided herein were assessed for their ability to inhibit Syk kinase by utilizing Caliper Life Sciences' proprietary LabChip™ technology. The off-chip incubation mobility-shift kinase assay uses a microfluidic chip to measure the conversion of a fluorescent peptide substrate to a phosphorylated product. The reaction mixture, from a microtiter plate well, is introduced through a capillary sipper onto the chip, where the nonphosphorylated substrate and phosphorylated product are separated by electrophoresis and detected via laser induced fluorescence. […] The phosphorylated product migrates through the chip faster than the non-phosphorylated substrate, and signals from the two forms of the peptide appear as distinct peaks. Caliper's data analysis software (HTSWA) determines peak heights, from which the ratio of product to the peak sum P/(P+S) and percent (%) conversion is calculated. This value is used to compare compound wells to control wells present on the plate, and thereby determine the % inhibition values for the compound. The formula used to calculate % inhibition is as follows, where C100% is the average % conversion of the 100% activity wells and Co% is the average % conversion of the 0% activity wells: (1−(% conversionofsample−C0%)/(C100%−C0%))*100.
Compounds (10 mM stocks in 100% DMSO) are diluted to a final concentration of 5 μM for single point inhibition experiments, and a series dilution of 10, 3, 1, 0.3, 0.1, 0.03, 0.01, 0.003, 0.001, 0.0003, 0.0001, and 0.00003 μM were made for IC50 determination. Generally, 12 μL of enzyme buffer containing purified kinase (various amount; various suppliers), 100 mM HEPES, pH 7.5, 1 mM DTT (Calbiochem, 2333153), 10 mM MgCl2 (Sigma, M-1028) or 10 mM MnCl2 (Sigma, M-1787) (assay specific), and 0.002% Brij-35 (Sigma, B4184) are added to each well. Compound and enzyme are allowed to pre-incubate for 15 minutes. 12 μL of peptide/ATP buffer containing 100 mM HEPES, pH 7.5, 1.5 μM fluorescein-labeled peptide (specific to kinase of interest), ATP (at KM apparent, Sigma, A9187), and 0.002% Brij-35 is then added to each well to initiate the reaction. The final concentration of DMSO in the well is 4%. Generally, reactions are incubated for 1 to 1.5 hours at room temperature to obtain adequate conversion of peptide to phosphorylated product in the linear range of the reaction. Reactions are terminated with the addition of 45 μL of Stop Buffer (containing 20 mM EDTA). Plates are then read on the LabChip 3000 using a 12-sipper LabChip. % conversion values and % inhibition values are obtained as provided and IC50 curves of compounds are generated using GraphPad Prism Version 4 or 5.01, or XLfit Version 4.3.2. When using GraphPad Prism, a nonlinear curve fit using the sigmoidal dose response—variable slope fit was used to graph IC50 curves and determine IC50 values and hillslopes. When using XLfit, Fit Model 205 (4-Parameter Logistic Model) is used to generate and fit the IC50 curve.

SMILES	IC50 (Caliper LabChip assay)	IC50
O=c1[nH]ccc2cc(Nc3cnccn3)nc(NC3CC(F)(F)C3)c12	27 nM	–
Nc1ncc(-c2cc3cc[nH]c(=O)c3c(NCCO)n2)cn1	–	86 nM
Cc1ccnc(Nc2cc3c(Cl)cn(C)c(=O)c3c(N[C@H]3CC[C@@H](O)CC3)n2)c1	113 nM	–
Cc1ccnc(Nc2cc3cc[nH]c(=O)c3c(NC[C@H]3CCCO3)n2)c1	–	83 nM
COc1ccnc(Nc2cc3cc[nH]c(=O)c3c(NC3CC3)n2)c1	–	266 nM
[2H]C([2H])([2H])C(O)c1ccnc(Nc2cc3ccn(CCO)c(=O)c3c(NC(C)(C)C)n2)c1 (stereo not shown)	17 nM	–

Next, values leading:

IC50 (Caliper LabChip assay)	IC50	SMILES
–	505 nM	Cc1ccnc(Nc2cc3ccn(C)c(=O)c3c(Nc3ccc(C4CCN(CCC#N)CC4)cc3)n2)c1
131 nM	–	CC(C)(C)Nc1nc(Nc2cc(C(C)(O)C(F)(F)F)ccn2)cc2ccn(CCO)c(=O)c12 (stereo not shown)
–	287 nM	Cc1ccc(-c2cc3c(F)c[nH]c(=O)c3c(Nc3ccc(N4CCOCC4)cc3)n2)cn1
–	850 nM	NC(=O)c1ccc(Nc2cc3cc[nH]c(=O)c3c(Nc3ccc(N4CCOCC4)cc3)n2)nc1
